# Reference: patent US20220257631A1, “THERAPEUTIC RNA FOR OVARIAN CANCER” (BIONTECH SE, priority 2019, published 2022)
# What was measured:
# [1] = mouse, in vivo, iv
# [2] = DOTMA biodistribution, LC/MS
smiles,measurement,setting,value
"CCCCCCCC/C=C\CCCCCCCCOCC(C[N+](C)(C)C)OCCCCCCCC/C=C\CCCCCCCC (stereo not drawn) [DOTMA, 1,2-di-O-octadecenyl-3-trimethylammonium propane]",Time to delivery to the spleen,[1],in less than one hour
same,DOTMA in all other organs relative to spleen concentration,[2]; eight weekly injections,not more than 5%
same,DOTMA concentration relative to maximum,"[2]; liver and spleen, within 20 days",about 50%
